Experimental findings from paper PMC8691691 (ACS Chemical Neuroscience, 2021) are described below.

Where a chain is given by its changes, count along the chain named.

Assay [1] deals with T1, GlyT2 G214L mutant (Rattus norvegicus, UniProt P58295, G214L).
T1 construct: expressed in transfected cells; host or cells: COS7
T1 sequence (P58295 1-799 G214L): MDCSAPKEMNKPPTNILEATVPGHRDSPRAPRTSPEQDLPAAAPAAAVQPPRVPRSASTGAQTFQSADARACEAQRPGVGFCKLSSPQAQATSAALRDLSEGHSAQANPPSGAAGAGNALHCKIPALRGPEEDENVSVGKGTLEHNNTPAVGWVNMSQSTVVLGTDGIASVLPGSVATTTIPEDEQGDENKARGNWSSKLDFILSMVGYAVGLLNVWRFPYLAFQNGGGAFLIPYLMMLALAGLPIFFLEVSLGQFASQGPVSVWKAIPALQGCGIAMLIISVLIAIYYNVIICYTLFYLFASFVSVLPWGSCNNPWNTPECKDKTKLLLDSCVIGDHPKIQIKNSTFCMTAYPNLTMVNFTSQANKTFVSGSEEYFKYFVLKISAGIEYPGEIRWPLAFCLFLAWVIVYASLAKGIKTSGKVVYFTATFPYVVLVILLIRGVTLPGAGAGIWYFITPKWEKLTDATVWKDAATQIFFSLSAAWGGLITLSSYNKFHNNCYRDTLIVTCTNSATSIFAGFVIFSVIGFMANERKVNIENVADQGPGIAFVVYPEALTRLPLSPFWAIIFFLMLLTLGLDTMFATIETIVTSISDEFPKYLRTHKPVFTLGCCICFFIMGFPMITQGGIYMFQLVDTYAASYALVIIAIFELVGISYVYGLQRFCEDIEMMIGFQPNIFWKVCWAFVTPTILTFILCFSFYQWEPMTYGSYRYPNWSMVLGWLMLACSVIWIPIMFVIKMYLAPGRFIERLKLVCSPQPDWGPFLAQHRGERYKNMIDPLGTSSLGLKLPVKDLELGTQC
Put plainly: [3H]glycine transport by GlyT2 mutant in COS7 cells. Format: cell-based. An excerpt: (§1) To validate the predicted interactions between the inhibitors and GlyT2, we used systematic site-directed mutagenesis to construct substitution mutants of the potential residues involved in ligand binding. […] The GlyT2 residues predicted to interact with the inhibitors through its side chain were replaced by amino acids expected to force the loss of the interaction. In the cases where the interaction occurred through the backbone, the inserted amino acid sought to alter the disposition of the substituted residue to lose the coordination. […] Most of the mutants were active, although depicted lower activity as compared to the wild-type. […] These two residues are preserved throughout the NSS family, and Tyr-289 has proven to have an important structural role in stabilizing the unwound portion of the TM1 helix, whereas Tyr-209 has a key role in S1 site formation through its interaction with Ser-481.[25],[30],[33] Other residues such as Leu-213 or Ser-479 are involved in the formation of the glycine-binding site and Na^+-binding site, respectively.
(§2) Substitution mutants were generated with the QuikChange II Site-Directed Mutagenesis kit (Agilent Technologies, Santa Clara, CA, USA), using rGlyT2 or rGlyT1 subcloned in pCDNA3.[47] The complete coding region of all of the constructs was sequenced to verify that only the desired mutation had been introduced. Plasmids from two independent Escherichia coli colonies were expressed in eukaryotic cells as indicated below, and [^3H]glycine transport and/or immunodetection was performed for verification. COS7 cells were grown and transfected using Turbofect Transfection Reagent (Thermo Fisher Scientific, Waltham, MA, USA), following the manufacturer’s protocol (2 μL reagent/μg of DNA). Cells were incubated for 48 h at 37 °C until used.
(§3) COS7 cells were washed and incubated at 37 °C in HEPES-buffered saline (HBS, in mM: 150 NaCl, 10 HEPES-Tris, pH 7.4, 1 CaCl2, 5 KCl, 1 MgSO4, 10 glucose) containing 2 μCi/mL [2-^3H]glycine (1.6 TBq/mmol; PerkinElmer Life Sciences), at 10 μM final glycine concentration if not otherwise stated.[48] At the end of the desired time (usually 10 min), reactions were washed and terminated by aspiration. Protein concentration (Bradford) and [2-^3H]glycine levels (liquid scintillation, LKB 1219 Rackbeta) were determined. Glycine accumulation measured in mock-transfected cells was subtracted from that of the transporter-transfected cells and normalized by the protein concentration. Kinetic analyses were performed by varying glycine concentration in the uptake medium between 0.5 and 500 μM. […] The determinations of the IC50 were performed initially by diluting compounds by log steps with the vehicle from 1 nM to 1 μM. Then, exact IC50 values were determined by means of 8-point concentration curves performed over a suitable range using half log dilutions with the vehicle. A nonlinear curve fitting method was used to obtain IC50 values using Graphpad Prism software, version 6.0, Graphpad, San Diego, CA, USA.

Assay [2] has as its target T2, GlyT2 W484C mutant (Rattus norvegicus, UniProt P58295, W484C).
T2 construct: expressed in transfected cells; host or cells: COS7
T2 sequence (P58295 1-799 W484C): T1 sequence (P58295 1-799 G214L) with L214G, W484C
The description is as above. Format: cell-based.
Text: as §1, §2, §3

Consider `NCC(=O)O` [Gly, glycine], for which the figures for the EC50 in assay [1] and in assay [2] were 78 ± 12 µM and 2340 ± 209 µM, respectively.
